Protein sequences, listed by entry. Tags and fused reporters are not part of them.
UniProt O75116, whole entry: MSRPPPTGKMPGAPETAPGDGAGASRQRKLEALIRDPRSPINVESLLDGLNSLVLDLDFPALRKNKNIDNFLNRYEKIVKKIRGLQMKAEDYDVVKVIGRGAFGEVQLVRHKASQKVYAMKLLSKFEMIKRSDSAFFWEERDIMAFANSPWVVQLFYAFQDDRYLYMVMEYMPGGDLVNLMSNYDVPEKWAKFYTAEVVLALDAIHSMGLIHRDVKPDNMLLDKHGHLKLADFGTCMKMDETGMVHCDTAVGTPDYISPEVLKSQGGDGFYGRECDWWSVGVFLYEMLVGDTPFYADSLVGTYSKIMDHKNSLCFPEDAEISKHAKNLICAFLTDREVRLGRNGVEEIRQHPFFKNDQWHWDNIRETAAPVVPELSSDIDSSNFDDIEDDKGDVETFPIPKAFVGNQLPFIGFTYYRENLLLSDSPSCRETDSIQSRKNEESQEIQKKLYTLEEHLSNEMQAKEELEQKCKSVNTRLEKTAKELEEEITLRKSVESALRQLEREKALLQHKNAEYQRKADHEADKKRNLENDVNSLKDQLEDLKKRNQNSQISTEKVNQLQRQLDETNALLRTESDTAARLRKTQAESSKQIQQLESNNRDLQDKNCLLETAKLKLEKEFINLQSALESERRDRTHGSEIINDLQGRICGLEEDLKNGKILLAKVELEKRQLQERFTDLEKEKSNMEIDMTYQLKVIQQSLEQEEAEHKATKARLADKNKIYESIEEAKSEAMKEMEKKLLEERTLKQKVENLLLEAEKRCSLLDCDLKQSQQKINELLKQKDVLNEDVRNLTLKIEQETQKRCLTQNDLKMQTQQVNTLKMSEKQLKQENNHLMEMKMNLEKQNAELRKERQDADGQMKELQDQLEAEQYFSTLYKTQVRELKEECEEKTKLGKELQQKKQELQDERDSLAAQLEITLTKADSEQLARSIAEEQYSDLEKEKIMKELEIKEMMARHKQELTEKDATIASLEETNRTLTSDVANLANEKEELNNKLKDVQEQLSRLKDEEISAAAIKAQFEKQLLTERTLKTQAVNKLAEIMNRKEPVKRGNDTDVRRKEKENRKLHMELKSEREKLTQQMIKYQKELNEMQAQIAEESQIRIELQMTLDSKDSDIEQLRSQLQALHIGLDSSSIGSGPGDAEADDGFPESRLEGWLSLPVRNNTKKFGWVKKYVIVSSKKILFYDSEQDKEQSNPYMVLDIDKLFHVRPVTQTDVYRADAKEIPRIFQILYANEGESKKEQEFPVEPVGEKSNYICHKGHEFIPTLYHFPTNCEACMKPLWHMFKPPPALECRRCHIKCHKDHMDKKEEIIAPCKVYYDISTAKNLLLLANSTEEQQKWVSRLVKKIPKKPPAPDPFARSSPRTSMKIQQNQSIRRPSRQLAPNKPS

In patent publication US20260384424A1, “HETEROCYCLIC COMPOUND” (published 2026):

Target: ROCK2 protein (Homo sapiens, UniProt O75116)
Test: Degradation inducing activity of ROCK2 protein in HUVEC cells, Western Blotting
Conditions: 24 hours
Description: In vitro degradation inducing activity of ROCK2 protein of compounds of Examples was evaluated by Western Blotting (WB).
By a test compound, 10 mM DMSO solution was prepared, which was used as a 10 μM test compound solution. Further, the solution was diluted 10-fold with DMSO to prepare a 1 mM solution, which was used as a 1 μM test compound solution.
HUVEC cells (ATCC: CRL-1730, Lot: 70041472) were cultured in F-12K medium supplemented with 10% FBS, 0.1 mg/mL heparin, 30 mg/mL Endothelial Cell Growth Supplement (ECGS, Corning), and 1% Penicillin/Streptomycin. The HUVEC cells seeded in a 24 well plate at 50,000 cells/well/i mL were cultured for 24 hours, and then 1 μL of DMSO or a test compound solution was added thereto and treatment was performed for 24 hours. Cells were harvested and lysed for 20 minutes on ice using lysis buffer (Cell Signaling Technology, Cat #9803) supplemented with protease inhibitor cocktail (Sigma, Cat #P8340; Roche, Cat #P11873580001), and phosphatase inhibitor cocktail (Sigma, Cat #P5726, P0044). The lysate was sonicated (15 seconds, amplitude 30%, 1 cycle) and then centrifuged at 12500 rpm for 15 minutes at 4 °C. The protein concentration was determined by BCA assay kit (Thermo Fisher Scientific, Cat #23225).
The western blotting was performed using Simple Western JESS (protein simple). A cell lysis sample (protein amount; about 1.06 μg) was loaded on a plate of Simple Western JESS, and the expression level of ROCK2 protein was detected using a 12-230 kDa Wes Separation Module (Protein simple, Cat #SM-W004), an Anti-Rabbit Detection Module for Wes (Protein simple, Cat #DM-001), and a Total Protein Detection Module for Wes (Protein simple, Cat #DM-TP01). As the primary antibody, a material obtained by diluting ROCK2 (D1B1) Rabbit mAb (Cell Signaling Technology, Cat #9029) at 1:10 was used, and as the secondary antibody, a material obtained by diluting HRP-labeled anti-rabbit IgG antibody (Cell Signaling Technology, Cat #7074S) at 1:100 was used. The expression level of the target protein was standardized using the total protein amount loaded as a reference. The standardized expression level data of the control (DMSO) was taken as 100%, and the degradation rate (%) was calculated from the average standardized expression level data of the test compound. All analysis steps, such as data detection and analysis, are fully automated.
With respect to the ROCK2 protein degradation rate of the test compound, the protein degradation rates (%) at the evaluation concentrations were set to A≥75%, 75%>B≥50%, 50%>C≥25%, and D<25%, and are shown in Table 7.

Row | Molecule | ROCK2 protein degradation rate (at 1 μm) | ROCK2 protein degradation rate (at 10 μm)
1 | COC[C@H]1CN[C@H](C)CN1CC(=O)N1CC(C)(C)c2ncc(Cc3ccccc3OCCOCCNC[C@@H](C(=O)Nc3ccc4cnccc4c3)c3ccccc3)cc21 | D (D<25%) | A (A≥75%)
2 | C[C@@H]1CN(CC(=O)N2CC(C)(C)c3ncc(Cc4ccc(F)cc4)cc32)[C@@H](CN(C)CCOCCOCCOCCOCCOCCNC[C@@H](C(=O)Nc2ccc3cnccc3c2)c2ccccc2)CN1 | C (50%>C≥25%) | A (A≥75%)
3 | COC[C@H]1CN[C@H](C)CN1CC(=O)N1CC(C)(C)c2nc(CN(C)CCOCCOCCOCCOCCOCCNC[C@@H](C(=O)Nc3ccc4cnccc4c3)c3ccccc3)c(Cc3ccc(F)cc3)cc21 | C (50%>C≥25%) | B (75%>B≥50%)
4 | COC[C@H]1CN[C@H](C)CN1CC(=O)N1CC(C)(C)c2ncc(Cc3cccc(OCCOCCN[C@H](C)c4ccc(C(=O)Nc5ccncc5)cc4)c3)cc21 | C (50%>C≥25%) | A (A≥75%)
5 | COC[C@H]1CN[C@H](C)CN1CC(=O)N1CC(C)(C)c2ncc(Cc3ccccc3OCCOCCOCCOCCOCCOCCOCCN[C@H](C)c3ccc(C(=O)Nc4ccncc4)cc3)cc21 | A/A (A≥75%) | A/A (A≥75%)
6 | C[C@@H]1CN(CC(=O)N2CC(C)(C)c3ncc(Cc4ccc(F)cc4)cc32)[C@@H](CN(C)CCOCCOCCOCCOCCN[C@H](C)c2ccc(C(=O)Nc3ccncc3)cc2)CN1 | A/A (A≥75%) | A/A (A≥75%)
7 | COC[C@H]1CN[C@H](C)CN1CC(=O)N1CC(C)(C)c2ncc(Cc3cccc(OCCOCCOCCNC[C@@H](C(=O)Nc4ccc5cnccc5c4)c4ccccc4)c3)cc21 | B (75%>B≥50%) | A (A≥75%)
8 | C[C@@H]1CN(CC(=O)N2CC(C)(C)c3ncc(Cc4ccc(F)cc4)cc32)[C@@H](CN(C)CCOCCOCCOCCOCCOCCOCCOCCN[C@H](C)c2ccc(C(=O)Nc3ccncc3)cc2)CN1 | – | B (75%>B≥50%)
9 | C[C@@H]1CN(CC(=O)N2CC(C)(C)c3ncc(Cc4ccc(F)cc4)cc32)[C@@H](CN(C)CCOCCOCCOCCOCCOCCN[C@H](Cc2cccc(F)c2)C(=O)Nc2ccc(-c3ccncc3)cc2)CN1 | D (D<25%) | C (50%>C≥25%)
10 | C[C@@H]1CN(CC(=O)N2CC(C)(C)c3ncc(Cc4ccc(F)cc4)cc32)[C@@H](CN(C)CCOCCOCCOCCOCCN[C@H](Cc2cccc(F)c2)C(=O)Nc2ccc(-c3ccncc3)cc2)CN1 | B (75%>B≥50%) | A (A≥75%)
11 | COC[C@H]1CN[C@H](C)CN1CC(=O)N1CC(C)(C)c2ncc(Cc3ccccc3OCCOCCOCCOCCOCCOCCN[C@H](Cc3cccc(F)c3)C(=O)Nc3ccc(-c4ccncc4)cc3)cc21 | D (D<25%) | B (75%>B≥50%)
12 | COC[C@H]1CN[C@H](C)CN1CC(=O)N1CC(C)(C)c2nc(CN(C)CCOCCOCCOCCOCCOCCOCCNC[C@@H](C(=O)Nc3ccc4cnccc4c3)c3ccccc3)c(Cc3ccc(F)cc3)cc21 | B (75%>B≥50%) | A (A≥75%)
13 | C[C@@H]1CN(CC(=O)N2CC(C)(C)c3ncc(Cc4ccc(F)cc4)cc32)[C@@H](CN(C)CCOCCN[C@H](Cc2cccc(F)c2)C(=O)Nc2ccc(-c3ccncc3)cc2)CN1 | C (50%>C≥25%) | A (A≥75%)
14 | C[C@@H]1CN(CC(=O)N2CC(C)(C)c3ncc(Cc4ccc(F)cc4)cc32)[C@@H](CN(C)CCOCCOCCOCCOCCOCCOCCN[C@H](C)c2ccc(C(=O)Nc3ccncc3)cc2)CN1 | B (75%>B≥50%) | A (A≥75%)
15 | COC[C@H]1CN[C@H](C)CN1CC(=O)N1CC(C)(C)c2ncc(Cc3cccc(OCCOCCN[C@H](Cc4cccc(F)c4)C(=O)Nc4ccc(-c5ccncc5)cc4)c3)cc21 | C (50%>C≥25%) | A (A≥75%)
16 | C[C@@H]1CN(CC(=O)N2CC(C)(C)c3ncc(Cc4ccc(F)cc4)cc32)[C@@H](CN(C)CCOCCNC[C@@H](C(=O)Nc2ccc3cnccc3c2)c2ccccc2)CN1 | D (D<25%) | A (A≥75%)

Row | Molecule | ROCK2 protein degradation rate (at 1 μm) | ROCK2 protein degradation rate (at 10 μm)
17 | COC[C@H]1CN[C@H](C)CN1CC(=O)N1CC(C)(C)c2ncc(Cc3ccccc3OCCOCCOCCOCCN[C@H](Cc3cccc(F)c3)C(=O)Nc3ccc(-c4ccncc4)cc3)cc21 | D (D<25%) | A (A≥75%)
18 | COC[C@H]1CN[C@H](C)CN1CC(=O)N1CC(C)(C)c2ncc(Cc3ccccc3OCCOCCOCCOCCOCCNC[C@@H](C(=O)Nc3ccc4cnccc4c3)c3ccccc3)cc21 | B (75%>B≥50%) | C (50%>C≥25%)
19 | COC[C@H]1CN[C@H](C)CN1CC(=O)N1CC(C)(C)c2ncc(Cc3cccc(OCCOCCOCCOCCN[C@H](C)c4ccc(C(=O)Nc5ccncc5)cc4)c3)cc21 | D (D<25%) | B (75%>B≥50%)
20 | COC[C@H]1CN[C@H](C)CN1CC(=O)N1CC(C)(C)c2ncc(Cc3cccc(OCCOCCNC[C@@H](C(=O)Nc4ccc5cnccc5c4)c4ccccc4)c3)cc21 | C (50%>C≥25%) | A (A≥75%)
21 | COC[C@H]1CN[C@H](C)CN1CC(=O)N1CC(C)(C)c2nc(CN(C)CCOCCOCCN[C@H](C)c3ccc(C(=O)Nc4ccncc4)cc3)c(Cc3ccc(F)cc3)cc21 | A/A (A≥75%) | A/A (A≥75%)
22 | (S)-1-((2R,5R)-1-(2-(6-(4-Fluorobenzyl)-3,3-dimethyl-2,3-dihydro-1H-pyrrolo[3,2-b]pyridin-1-yl)-2-oxoethyl)-5-methylpiperazin-2-yl)-N-(isoquinolin-6-yl)-2-methyl-19-phenyl-5,8,11,14-tetraoxa-2,17-diazaicosan-20-amide | A/A (A≥75%) | A/A (A≥75%)
23 | COC[C@H]1CN[C@H](C)CN1CC(=O)N1CC(C)(C)c2ncc(Cc3cccc(OCCOCCOCCN[C@H](Cc4cccc(F)c4)C(=O)Nc4ccc(-c5ccncc5)cc4)c3)cc21 | B (75%>B≥50%) | A (A≥75%)
24 | COC[C@H]1CN[C@H](C)CN1CC(=O)N1CC(C)(C)c2ncc(Cc3cccc(OCCOCCOCCOCCN[C@H](Cc4cccc(F)c4)C(=O)Nc4ccc(-c5ccncc5)cc4)c3)cc21 | C (50%>C≥25%) | B (75%>B≥50%)
25 | COC[C@H]1CN[C@H](C)CN1CC(=O)N1CC(C)(C)c2nc(CN(C)CCOCCOCCOCCOCCOCCN[C@H](C)c3ccc(C(=O)Nc4ccncc4)cc3)c(Cc3ccc(F)cc3)cc21 | B (75%>B≥50%) | A (A≥75%)
26 | COC[C@H]1CN[C@H](C)CN1CC(=O)N1CC(C)(C)c2ncc(Cc3cccc(OCCOCCOCCOCCOCCOCCN[C@H](Cc4cccc(F)c4)C(=O)Nc4ccc(-c5ccncc5)cc4)c3)cc21 | A (A≥75%) | C (50%>C≥25%)
27 | COC[C@H]1CN[C@H](C)CN1CC(=O)N1CC(C)(C)c2ncc(Cc3ccccc3OCCOCCOCCOCCOCCOCCOCCOCCN[C@H](Cc3cccc(F)c3)C(=O)Nc3ccc(-c4ccncc4)cc3)cc21 | D (D<25%) | A (A≥75%)
28 | COC[C@H]1CN[C@H](C)CN1CC(=O)N1CC(C)(C)c2ncc(Cc3cccc(OCCOCCOCCOCCOCCOCCNC[C@@H](C(=O)Nc4ccc5cnccc5c4)c4ccccc4)c3)cc21 | B (75%>B≥50%) | A (A≥75%)
29 | COC[C@H]1CN[C@H](C)CN1CC(=O)N1CC(C)(C)c2ncc(Cc3ccccc3OCCOCCOCCOCCOCCOCCOCCN[C@H](Cc3cccc(F)c3)C(=O)Nc3ccc(-c4ccncc4)cc3)cc21 | D (D<25%) | B (75%>B≥50%)
30 | COC[C@H]1CN[C@H](C)CN1CC(=O)N1CC(C)(C)c2ncc(Cc3cccc(OCCOCCOCCN[C@H](C)c4ccc(C(=O)Nc5ccncc5)cc4)c3)cc21 | B (75%>B≥50%) | A (A≥75%)
31 | COC[C@H]1CN[C@H](C)CN1CC(=O)N1CC(C)(C)c2nc(CN(C)CCOCCOCCN[C@H](Cc3cccc(F)c3)C(=O)Nc3ccc(-c4ccncc4)cc3)c(Cc3ccc(F)cc3)cc21 | D/D (D<25%) | D/D (D<25%)
